Patent US20200199102A1, “COMPOUNDS THAT PARTICIPATE IN COOPERATIVE BINDING AND USES THEREOF” (Revolution Medicines, Inc., priority 2017, published 2020)

Chains of the proteins cited; added tags and fusions are not shown.
UniProt P62937, whole entry: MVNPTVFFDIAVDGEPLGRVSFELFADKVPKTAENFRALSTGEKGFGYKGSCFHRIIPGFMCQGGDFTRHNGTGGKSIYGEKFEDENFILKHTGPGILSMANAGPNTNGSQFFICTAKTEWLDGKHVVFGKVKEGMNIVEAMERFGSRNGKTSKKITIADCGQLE

target: Cyclophilin A (Homo sapiens, UniProt P62937); assay: AlphaLISA inhibition of binding of biotinylated Cyclosporin A to FLAG tagged Cyclophilin A; conditions: test concentration not given

How did the “% signal” value turn out when `C/C=C/C[C@@H](C)[C@@H](O)[C@H]1C(=O)N[C@@H](CC)C(=O)N(C)CC(=O)N(C)[C@@H](C(C)C)C(=O)N[C@@H](C(C)C)C(=O)N(C)[C@@H](CC(C)C)C(=O)N[C@@H](C)C(=O)N[C@H](C)C(=O)N(C)[C@@H](CC(C)C)C(=O)N(C)[C@@H](CC(C)C)C(=O)N(C)[C@@H](C(C)C)C(=O)N1C` was run?
The value was 0.40%.

`C/C=C/C[C@@H](C)[C@@H](O)[C@H]1C(=O)N[C@@H](CC)C(=O)N(C)CC(=O)N(C)[C@H](C)C(=O)N[C@@H](C(C)C)C(=O)N(C)[C@@H](CC(C)C)C(=O)N[C@@H](CC(C)C)C(=O)N[C@H](C)C(=O)N(C)[C@@H](CC(C)C)C(=O)N(C)[C@@H](CC(C)C)C(=O)N(C)[C@@H](C(C)C)C(=O)N1C` was tested. Which “% signal” value did it give?
Its value is 4.29%.

How did the “% signal” value turn out when `C/C=C/C[C@@H](C)[C@@H](O)[C@H]1C(=O)N[C@@H](CC)C(=O)N(C)CC(=O)N(C)[C@H](C)C(=O)N[C@@H](CC(C)C)C(=O)N(C)[C@@H](C)C(=O)N[C@@H](C)C(=O)N[C@H](C)C(=O)N(C)[C@@H](CC(C)C)C(=O)N(C)[C@@H](CC(C)C)C(=O)N(C)[C@@H](C(C)C)C(=O)N1C` was run?
Its value is 6.27%.
